Experimental data: PMC12390684 (Viruses, 2025)

Amino acid sequences for entries named in this document (tags omitted). Residues count along the entry.
UniProt Q9P2K8, 192-1024: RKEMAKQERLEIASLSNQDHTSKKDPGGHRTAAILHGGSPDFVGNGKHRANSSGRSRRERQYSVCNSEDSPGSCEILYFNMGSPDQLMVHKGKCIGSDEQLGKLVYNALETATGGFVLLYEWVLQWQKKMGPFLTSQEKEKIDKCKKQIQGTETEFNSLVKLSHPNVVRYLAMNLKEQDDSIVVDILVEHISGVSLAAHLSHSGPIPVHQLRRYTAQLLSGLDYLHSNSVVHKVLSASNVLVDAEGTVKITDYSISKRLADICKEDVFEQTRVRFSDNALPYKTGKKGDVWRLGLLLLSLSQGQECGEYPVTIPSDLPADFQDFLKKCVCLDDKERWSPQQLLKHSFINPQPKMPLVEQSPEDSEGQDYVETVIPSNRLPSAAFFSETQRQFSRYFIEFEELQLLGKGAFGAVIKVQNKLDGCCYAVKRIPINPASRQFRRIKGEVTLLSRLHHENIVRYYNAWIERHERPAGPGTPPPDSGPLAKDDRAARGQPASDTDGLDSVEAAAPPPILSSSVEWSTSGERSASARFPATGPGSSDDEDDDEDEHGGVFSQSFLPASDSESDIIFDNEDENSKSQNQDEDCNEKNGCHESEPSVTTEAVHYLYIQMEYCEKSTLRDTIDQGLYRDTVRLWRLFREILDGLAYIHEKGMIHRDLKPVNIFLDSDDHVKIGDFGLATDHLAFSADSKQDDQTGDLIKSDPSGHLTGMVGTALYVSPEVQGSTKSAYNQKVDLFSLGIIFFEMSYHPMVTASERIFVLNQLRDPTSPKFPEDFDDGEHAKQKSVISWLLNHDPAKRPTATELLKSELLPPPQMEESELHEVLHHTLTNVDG

Molecular target: IN-GCN2 interaction (6xHis-IN / GST-GCN2) (UniProt P04585+Q9P2K8)
Format: binding, HIV-1 IN; human GCN2
Details: screen, single dose 100 µM, single replicate; residual AlphaLISA signal normalized to DMSO control

OC[C@H]1O[C@@H](n2cnc3c2NC=NC[C@H]3O)C[C@@H]1O [NSC218321]
IN-GCN2 interaction (%): 82.71%
